{
  "sequences": {"note": "Sequences of proteins named here, by UniProt entry; tags and fusion partners are left off. Residues count along the entry.", "UniProt O14791, 28-398 S342G/I384M limits assumed": "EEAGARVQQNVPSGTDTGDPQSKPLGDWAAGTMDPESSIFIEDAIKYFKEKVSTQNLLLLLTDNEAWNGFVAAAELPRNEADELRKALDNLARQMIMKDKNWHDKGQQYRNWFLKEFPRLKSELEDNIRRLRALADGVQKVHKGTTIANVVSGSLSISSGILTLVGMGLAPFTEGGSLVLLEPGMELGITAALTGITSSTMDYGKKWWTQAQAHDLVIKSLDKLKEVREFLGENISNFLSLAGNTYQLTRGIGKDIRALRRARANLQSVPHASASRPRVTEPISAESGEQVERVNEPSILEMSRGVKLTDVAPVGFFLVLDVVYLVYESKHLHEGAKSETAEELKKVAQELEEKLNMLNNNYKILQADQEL"},
  "source": "patent EP4810040A2",
  "about": "“INHIBITORS OF APOL1 AND METHODS OF USING SAME” (priority 2020, dated 2022)",
  "target": "APOL1 G1 (Homo sapiens, UniProt O14791, I384M/S342G)",
  "assay": "MultiTox-Fluor Multiplex Cytotoxicity Assay, tet-inducible APOL1 G1 T-REx-HEK293 cells",
  "format": "cell-based",
  "data": [
    {"smiles": "C[C@@H](CO)CCn1cc([C@@H]2C[C@]3(C[C@H](C)N2)OCC(F)(F)c2cc(Cl)sc23)nn1", "values": [
      {"measurement": "IC90", "setting": "read-out: Multi-Tox Assay IC90, APOL1 variant (G0/G1/G2) of the HEK293 cells not given, tested form: parent or trifluoroacetate salt (not spe)", "result": "< 50", "unit": "nM"},
      {"measurement": "IC50", "setting": "read-out: Multi-Tox Assay IP50, IP50 = IC50 for cell proliferation, APOL1 variant not given, tested form: parent or trifluoroacetate salt (not spe)", "result": "< 50", "unit": "nM"}
    ]}
  ]
}
